## Antibody variant affinities, Ab-95 light chain, assay 2

Data: MIT Lincoln Laboratory AlphaSeq set, Engelhart et al. 2022, doi:10.1038/s41597-022-01779-4, as distributed in FLAb.

All variants were tested on one target, the spike HR2 peptide PDVDLGDISGINAS (SARS-CoV-2).

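The starting antibody came from a phage panning campaign against this peptide. In library AAYL52, one, two or three CDR residues were substituted; doubles and triples were drawn at random. The assay is AlphaSeq: two haploid yeast populations carry antibody and antigen on their surface. Pairs that bind mate more often; barcode pairs of the diploids are counted by sequencing. A regression on co-assayed BCL2-family reference pairs converts the normalised counts of each replicate to an apparent Kd. Mating was done three times.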

The variants keep the heavy chain, the linker and the frameworks of Ab-95 (scFv order VH, a 15-residue (Gly4Ser)3 linker, VL).
VH: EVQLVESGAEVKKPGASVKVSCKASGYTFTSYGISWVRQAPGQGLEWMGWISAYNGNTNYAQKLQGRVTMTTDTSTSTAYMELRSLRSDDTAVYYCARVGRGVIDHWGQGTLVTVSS
VL: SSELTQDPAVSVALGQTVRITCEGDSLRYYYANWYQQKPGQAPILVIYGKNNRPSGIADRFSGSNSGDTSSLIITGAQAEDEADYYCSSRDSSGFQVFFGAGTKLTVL

The parent's light chain CDRs are EGDSLRYYYAN, GKNNRPS, SSRDSSGFQVF; each variant's own CDRs replace them letter for letter. Scale: log10 of Kd in nM, estimated from mating counts; low values are strong binders. Replicates are averaged; those with no signal do not enter the mean. An entry "nd" has no value in the source: the pair was not observed among the diploids in any replicate. This suggests poor binding but is not conclusive. For reference, the parent read 2.31 as the reference entry and 2.25 as a member of this library. Three control strains display no target. For library AAYL52, 28% of the pairings with them gave a signal, with a median of 3.91 and one signal in twenty below 2.90, so weak values seen in few replicates may be background.

For EMDSLRGYYAN / GKNNRPS / SSRDLSGFQVF, the assay gave 2.45 (3 of 3 replicates).
For EGDSLRLYCAN / GKNWRPS / SSRDSSGFQVF, the assay gave 3.33 (2 of 3 replicates).
For EGDSLRYYYAN / GKNIRKS / NSRDSSGFQVF, the assay gave 3.56 (3 of 3 replicates).
For EGDSFRYYYGN / GKNNRPS / SSRDDSGFQVF, the assay gave 3.63 (2 of 3 replicates).
For EGDELRYYSAN / GKNNRPS / SSRDSSWFQVF, the assay gave 3.58 (3 of 3 replicates).
For EGDSLRYYYAN / GNPNRPS / SSRDVSGFQVF, the assay gave 3.89 (2 of 3 replicates).
For EGDSLRYYYAN / GKNNRPH / SARDSSDFQVF, the assay gave 3.26 (1 of 3 replicates).
For EGDSLRYYYAN / YKNNRPS / SSRLSSGFSVF, the assay gave nd (0 of 3 replicates).
For EGDSLRHYYAN / GKNNRPS / KSRDSKGFQVF, the assay gave nd (0 of 3 replicates).
For EGDSLRYYYAN / GKNNRPS / SSRDCTGFYVF, the assay gave 2.32 (3 of 3 replicates).
For EGDLLRYYLAN / GKNNRPS / SSRDSMGFQVF, the assay gave 4.05 (2 of 3 replicates).
For EGDSLAYYYAN / GKNNRPS / SSRDSSGWQVW, the assay gave 2.42 (3 of 3 replicates).
For EGDSLRYYYCN / GKSNRPS / SSRDSSNFQVF, the assay gave nd (0 of 3 replicates).
For EGDSLRYYYAN / GKNNWPS / SSRDSDGFQVF, the assay gave 3.87 (1 of 3 replicates).
For EGDYLRYYYAN / GKKNPPS / SSRDSSGFQVF, the assay gave nd (0 of 3 replicates).
For EHDSLRVYYAN / GKNRRPS / SSRDSSGFQVF, the assay gave 4.64 (2 of 3 replicates).
For EGDSLREYMAN / GKNNRPS / SSRDSMGFQVF, the assay gave 1.94 (3 of 3 replicates).
For EGDSLRYYYAN / GKNNRPS / TSRRSSGYQVF, the assay gave 2.08 (3 of 3 replicates).
For EGDSERYYYAN / GKNNRPS / SHRDSPGFQVF, the assay gave nd (0 of 3 replicates).
For EGDSLRYYYAN / GHNNEPS / SSKDSSGFQVF, the assay gave 4.84 (2 of 3 replicates).
For EGDSLRYYYAK / GKNNRPV / TSRDSSGFQVF, the assay gave nd (0 of 3 replicates).
For EGDSFRYYYAN / GGNNRPS / SSRDSSGFQVC, the assay gave 3.15 (3 of 3 replicates).
For EGDSLRKYYAN / GKNNRLS / SSRISSGFQVF, the assay gave 3.68 (3 of 3 replicates).
For SGDSLRYYWAN / GKNNRPS / SSRDSSGRQVF, the assay gave 2.03 (3 of 3 replicates).
For EGDSLRYYYAN / GKNNRPS / SSRDSSNFTVF, the assay gave 2.50 (1 of 3 replicates).
For CGDSLRYYYAN / GKPNRPS / SSRDSSGFQSF, the assay gave nd (0 of 3 replicates).
For EGDSLRYYYAN / GQNNRPS / SQRKSSGFQVF, the assay gave 2.39 (3 of 3 replicates).
For EGDSLRYYYAN / GKNNRPN / SSRDSSGFRVN, the assay gave 2.29 (3 of 3 replicates).
For EGDSLRIYYAN / GKNNRPS / VQRDSSGFQVF, the assay gave 3.31 (1 of 3 replicates).
For EGDSLRYYYAN / NKINRPS / SSRDTSGFQVF, the assay gave 3.86 (1 of 3 replicates).
For EGDGLRKYYAN / GKNNRPS / SSRDSSEFQVF, the assay gave nd (0 of 3 replicates).
For EGDYLLYYYAN / GKNNRPC / SSRDSSGFQVF, the assay gave 2.05 (3 of 3 replicates).
For EGDSLRFYYAN / QKNNRPS / SSRDSSGFFVF, the assay gave 4.01 (2 of 3 replicates).
For EGDSLRYLYAN / GKNSRPS / FSRDSSGFQVF, the assay gave 3.61 (3 of 3 replicates).
For GGDSDRYYYAN / GKNQRPS / SSRDSSGFQVF, the assay gave 3.45 (3 of 3 replicates).
For EGDSLRYYMAN / GKNNRPS / SSFNSSGFQVF, the assay gave 3.95 (1 of 3 replicates).

Excerpt, the first 2 entries:

CDR-L1,CDR-L2,CDR-L3,"mean, log10 nM",seen in
EMDSLRGYYAN,GKNNRPS,SSRDLSGFQVF,2.45,3/3
EGDSLRLYCAN,GKNWRPS,SSRDSSGFQVF,3.33,2/3